Patent US20080262745A1, “Method for Determining Insulin Sensitivity and Glucose Absorption” (priority 2007, published 2008)

Conditions: 14 rosiglitazone-treated subjects (6 healthy, 8 with diabetes), 4 mg bid for 6 weeks; OGTT, SIARaA; mean ±s.e.m.; 6.9±1.3 before treatment, p<0.05

## CN(CCOc1ccc(CC2SC(=O)NC2=O)cc1)c1ccccn1 (stereo not shown) [rosiglitazone]
  SI (insulin sensitivity) after treatment: 14.2±2.4 10^−4/min/(μU/ml)
